Measurements as given in patent US6039820A, “Metal complexes for use as gas generants” (dated 2000).

Assays:
[1] = accelerated aging of pressed pellets in 95° C. oven, weight loss; settings: four gram 1/2 inch pellets, 95° C. oven for 700 hours
[2] = test system: rat; settings: cited from earlier work

Row | Compound | loss in weight after aging [1] | toxicity level as measured by oral rat LD50 [2] [mg/kg]
1 | hexaamminecobalt(III) nitrate | No loss in weight | –
2 | [N-]=[N+]=[N-] | – | 45
